The values below come from patent US20090304689A1, “METHODS FOR THE IDENTIFICATION OF POLYPEPTIDE ANTIGENS ASSOCIATED WITH DISORDERS INVOLVING ABERRANT CELL PROLIFERATION AND COMPOSITIONS USEFUL FOR THE TREATMENT OF SUCH DISORDERS” (priority 2001, published 2009).

Data set [1] deals with SK-BR-3 breast tumor cells. The data set can be described thus: Cell proliferation of normally growing SK-BR-3 cells, 10% FBS (FIG. 6A). It is filed as cell-based, human. As to conditions: SK-BR-3 in 10% FBS, 3 days.
Data set [2] has as its system cynomolgus monkeys. The data set is described as follows: Four-week intravenous toxicity study in female cynomolgus monkeys. It is filed as in vivo, cynomolgus monkeys (Macaca fascicularis). Particulars: 2, 10 or 30 mg/kg i.v. once weekly for 4 weeks. As for the experimental part:
HERCEPTIN®-DM1 was administered to young adult female cynomolgus monkeys (Macaca fascicularis; Primate Products, Inc., Miami Fla.) once weekly for four weeks. The average weight of the monkeys was three kilograms (range from 2.7 to 3.4 kilograms). A total of eight monkeys, divided into four groups of two monkeys each, were utilized for the study. The dosages of HERCEPTIN®-DM 1 tested were 2, 10 and 30 mg/kg. A control group received vehicle only (an aqueous buffer (pH 5.0) containing sodium succinate (10 mM), sucrose (100 mg/ml) and TWEEN™ 20 (0.1%)) at the same dose volume as administered to the treated animals. The monkeys were analyzed for various toxicities, including, but not limited to, neurotoxicity and cardiotoxicity. […]
The test and control articles were administered over a 30 to 60 second time period by intravenous injection into an indwelling catheter inserted into the saphenous or cephalic vein, using a stainless steel dosing needle and syringe of appropriate size. […] Doses were calculated using the most recent body weights available. […]
Physical observations were performed twice pretest and once weekly during the study period. Body weights were recorded twice pretest, weekly during the study period and prior to termination. […]
After four weeks of treatment, all survivors were sacrificed. […] Cardiac and nerve tissues were collected from each animal and analyzed.

The subject of data set [3] is SK-BR3 cells. The data set is described as follows: Anti-proliferative effect / cytotoxicity on SK-BR-3 breast tumor cells (crystal violet, FIG. 4). As to conditions: SK-BR-3, 3 day incubation. Type of data set: cell-based, human. As to the method:
SK-BR3 cells, which express 3+level of HER2 on cell surface (about 2 million HER2 molecules/cell), were treated with HERCEPTIN®, HERCEPTIN®-DM1 conjugate, control mAb RITUXAN® or RITUXAN®-DM1 conjugates, and the effect of these treatments on cell proliferation was monitored. […] The RITUXAN®-DM1 conjugate required about 100 times higher concentration to achieve the same level of cell growth inhibition as HERCEPTIN®-DM1 conjugate.

Regarding “HERCEPTIN®: HERCEPTIN® (huMAb4D5-8, rhuMAb HER2, U.S. Pat. No. 5,821,337) antibody”, the “effect on cell proliferation” value in data set [1] is on record as “modest reduction”. In data set [2], the “cardiotoxicity (clinical evaluations, serum markers, heart light microscopy)” value is reported as “no evidence of cardiotoxicity”. Moreover, the “reduction in SK-BR-3 cell growth” value in data set [3] was 35%.
